## scFv variants of Ab-14 (light chain) against a SARS-CoV-2 spike peptide

Reference: Li et al. 2023, doi:10.1038/s41467-023-39022-2. File: FLAb, binding data.

Binding partner: SARS-CoV-2 spike HR2 peptide, sequence PDVDLGDISGINAS.

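The parent was found by panning a naive human phage display library on the peptide. The variants were designed computationally from a first round of random CDR variants and then made and measured. Group labels follow the data file (Ctrl: baseline library sampled from a position-specific scoring matrix, with some repeated check sequences; GP: Gaussian process model; GPLM: also part of the Gaussian process libraries; HC: hill climbing; Gen: genetic algorithm; Gibbs: Gibbs sampling; a sequence that several methods proposed may carry one label only). Affinity was read by AlphaSeq, a pooled yeast mating assay with surface-displayed partners. Binding brings cells together so that they mate, and sequencing counts the barcode pairs among the diploids. Each replicate has its own calibration line, from reference interactions of the BCL2 family. Mating was done six times.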

Parent scFv Ab-14: VH joined to VL by three GGGGS repeats. Changes lie in the light chain CDRs alone.
VH: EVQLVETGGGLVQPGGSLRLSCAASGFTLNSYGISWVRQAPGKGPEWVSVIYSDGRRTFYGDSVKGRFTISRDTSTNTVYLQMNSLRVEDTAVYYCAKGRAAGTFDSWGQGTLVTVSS
VL: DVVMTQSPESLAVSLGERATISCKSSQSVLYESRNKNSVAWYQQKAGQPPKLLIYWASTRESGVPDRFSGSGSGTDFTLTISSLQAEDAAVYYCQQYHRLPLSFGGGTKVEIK

Each variant is given by its three light chain CDRs, as the data file delimits them; those of the parent are KSSQSVLYESRNKNSVA, WASTRES, QQYHRLPLS.
Variants here have at most six changes.
Kd is apparent (estimated from mating counts) and averaged on the log scale over replicates with a signal. Smaller is tighter.
Where no diploid with the target was found in any replicate, the entry reads "no signal": below detection, most likely a poor binder, though not proof of it.
The list is sorted by this average, lowest first, undetected variants last.
Of ten entries with the parent sequence, four were seen in most replicates (averages 2.2 nM to 240 nM), three in one and three in none, so single entries are noisy.
The authors averaged sequences with at least three values out of six and counted those with two or fewer as poor binders.
Background: pairings of all light chain designs with three empty control strains gave a value in 4% of cases (median 430 nM, 5th percentile 38 nM). Values in that range, when seen in few replicates, are hard to tell from nonspecific mating.
Where one sequence has several entries in the source, the replicates are pooled.
A sequence measured in both rounds can read differently, since the two assays cover different ranges.

KISQSSMYESRNKDSVA / QASTRES / QQYHRLPLS [Ctrl]: 330 pM (6 of 6 replicates).
KLQQSVEYESRNKNNVA / NASTRES / QQYHRLPLS [GP_Gen]: 360 pM (6 of 6 replicates).
KLRQQTLYESRNKNSVA / DASTREE / QQYHRLPLS [GP_HC]: 410 pM (6 of 6 replicates).
KLPQSWLYESRMKNSVA / NASQRES / QQYHRLPLS [GP_Gen]: 530 pM (6 of 6 replicates).
KLPQSDLYESRNKNSVA / SASTRES / QQYHRLPLS [GP_Gen]: 580 pM (6 of 6 replicates).
KSSISYLYESRNKNSVA / GASTRES / QQYHRLPLS [GP_HC]: 590 pM (6 of 6 replicates).
KSMFSVPGESRNKNSVA / EASTRES / QQYHRLPLS [GP_Gibbs]: 610 pM (6 of 6 replicates).
KMSQSFLMESRNGNSVA / NASKRES / QQYHRLPLS [GP_Gibbs]: 630 pM (6 of 6 replicates).
KLPQSTLYESRNKNSVA / SASTRES / QQYHRLPLS [GP_Gen]: 650 pM (6 of 6 replicates).
KLSQGALYESRNKNSVA / GASTRES / QQYHRLPLS [GP_HC]: 670 pM (6 of 6 replicates).
NFSQSYLYESRNKNSVA / GGNTRES / QQYHRLPLS [GP_HC]: 700 pM (6 of 6 replicates).
KSSGSYLYESRNKNSVA / EASTREQ / QQYHRLPLS [GP_HC]: 770 pM (6 of 6 replicates).
KWSFSVMGESRNKNSVA / DASTRES / QQYERLPLS [GP_Gibbs]: 840 pM (6 of 6 replicates).
KFSISYLEESRNKNSVA / EASTRES / QQYHRLPLS [GP_HC]: 1.2 nM (6 of 6 replicates).
KWEQSVMGESRNKNSVA / NASTRMS / QQYHRLPLS [GP_Gibbs]: 1.4 nM (6 of 6 replicates).
KSSQSVLYESMNKNSVA / GASTRES / QQYHRLPLS [Ctrl+GPLM_HC]: 1.5 nM (12 of 12 replicates).
KVSQSNLYESGTKNSVA / NASSRES / QQYHRLPLS [GP_HC]: 1.6 nM (6 of 6 replicates).
KQSQSVWMESRNKNSVA / EASTRES / QQYHRLPLS [GP_Gen]: 1.6 nM (6 of 6 replicates).
KVSQSTLYESRMKNSVA / NASVRSS / QQYHRLPLS [GP_Gibbs]: 1.7 nM (6 of 6 replicates).
HSSQSVEYESRNKNSVA / NASTRES / QQYHRLPLS [GP_HC]: 1.7 nM (6 of 6 replicates).
KLQQSHLYESRNKNSVA / SASTRLS / QQYHRLPLS [GP_Gen]: 1.9 nM (6 of 6 replicates).
KLMQSVLYESRNKNSVA / NASTRCS / QQYHRLPLS [GP_Gen]: 2.0 nM (6 of 6 replicates).
KFSQSQLYEWRNKNSVA / DASTRES / QQYHRLPLS [GP_HC]: 3.4 nM (6 of 6 replicates).
KSSISMLYESRNKNSVA / AASTRES / QQYHRLPLS [GP_HC]: 4.6 nM (6 of 6 replicates).
KISQSVMYESRNKNSVA / WASVRES / QQYHHLPLS [Ctrl]: 4.8 nM (6 of 6 replicates).
KSSQSVLYESRNKNSVA / AASTREQ / QQYHRLPLS [Ctrl]: 5.2 nM (6 of 6 replicates).
KMSQSVLYESENKNSVA / WASQRFS / QQYHRLPLS [Ctrl]: 5.3 nM (6 of 6 replicates).
KLSISYLYESRNKNSVA / EASTRES / QQYHRLPLS [GP_HC]: 5.6 nM (6 of 6 replicates).
KFSQSVPQESRNKNSVA / WASTRES / QQYHRLPLS [Ctrl]: 6.1 nM (6 of 6 replicates).
KCSQSVLDEYDNKNSVA / WASTRTS / QQYHRLPLS [Ctrl]: 10 nM (6 of 6 replicates).
KSSQSNLYESTNKNSVA / WASERES / QQYHRLPLL [Ctrl]: 21 nM (6 of 6 replicates).
KSSQSVLYEGKNKNSVA / WASTRES / QQYHRLPLS [Ctrl]: 29 nM (5 of 6 replicates).
KSSQSVLYESRNKNSIA / HASTRER / QQYHRLPLS [Ctrl]: 31 nM (6 of 6 replicates).
KGSQSVLYESRNKNSVA / WASTRES / QQYHRLPLS [Ctrl]: 33 nM (6 of 6 replicates).
KSSQSVLFESRNKNSVA / AASTRES / QQYHRLPLS [Ctrl]: 38 nM (4 of 6 replicates).
KISKSVLYESRNANSVA / WADTRES / QQYHRLPLS [Ctrl]: 43 nM (6 of 6 replicates).
KISGSVLYDSRNKNSVA / WASTRES / QQYHRLPLS [Ctrl]: 71 nM (6 of 6 replicates).
KSSQSVLYEVRNKNSVA / AASTRES / QHYHRLPLS [Ctrl]: 97 nM (6 of 6 replicates).
ISPQSVLYESRNKNSVA / NASTRES / QQYHRLPES [Ctrl]: 140 nM (2 of 6 replicates).
KWSQSVLYEHRNKNSVA / WASTRES / QQYHRLPLS [Ctrl]: 150 nM (3 of 6 replicates).
KVSQSVLYESRNKNSVA / WASTRLS / QQLHRLPLS [Ctrl]: 230 nM (2 of 6 replicates).
KSSQSVLYESRNKNSVA / WASTREQ / QQYHGLPLS [Ctrl]: 1.8 µM (2 of 6 replicates).
KISQSVLYEVQNKNSVN / WASTRES / QQYHRLPLS [Ctrl]: no signal (0 of 6 replicates).
KSSQSVLYESRNKNSVA / AASTHES / QQVHRLPLS [Ctrl]: no signal (0 of 6 replicates).

Excerpt, the final 2 entries:

| CDR-L1 | CDR-L2 | CDR-L3 | group | Kd | seen in |
|---|---|---|---|---|---|
| KISQSVLYEVQNKNSVN | WASTRES | QQYHRLPLS | Ctrl | no signal | 0/6 |
| KSSQSVLYESRNKNSVA | AASTHES | QQVHRLPLS | Ctrl | no signal | 0/6 |